Only a part is listed here, and it is no random draw. Results filed as inconclusive are left out. Calls of active or inactive are those of the source. Unless noted, calls follow the shape of the dose curve; as a rule, active = well fitted curve in the direction sought with a large enough effect; inconclusive = small, poorly fitted or top-dose-only effect, or another doubt; inactive = no such curve, though single readings can be large; an effect the other way counts as inactive or inconclusive.
What was measured:
[1] = target: Muscarinic acetylcholine receptor M1 (Rattus norvegicus) (UniProt P08482); test: qHTS Assay for Antagonists of Acetylcholine Muscarinic M1 Receptor: Measurement of IP-One Response (AID 944); conditions: CHO-M1 cells, IP-One HTRF, antagonist mode; at 46.1 µM (top of the series); also: nearly all actives have a fitted effect of over 75% in size
[2] = target: Pyruvate kinase PKM (Homo sapiens) (UniProt P14618); test: qHTS Assay for Activators of Human Muscle Pyruvate Kinase (AID 954; active = well fitted curve in the direction sought with a large enough effect, not every such curve was filed as active;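 also: 0% = uninhibited enzyme and -100% = no enzyme or full thiadiazolimine inhibition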); conditions: purified human PKM1 enzyme activity; at 57.5 µM (top of the series)
Procedure, shortened: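 A coupled luminescent readout tracked ATP made from ADP by purified PKM2. Final conditions included 0.1 nM enzyme, PEP and ADP at 0.5 and 0.1 mM, pH 7.2 imidazole buffer with BSA, and a one-hour room-temperature reaction.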

Protein sequences, listed by entry. Tags and fused reporters are not part of them. Residues count along the entry.
UniProt P08482, whole entry: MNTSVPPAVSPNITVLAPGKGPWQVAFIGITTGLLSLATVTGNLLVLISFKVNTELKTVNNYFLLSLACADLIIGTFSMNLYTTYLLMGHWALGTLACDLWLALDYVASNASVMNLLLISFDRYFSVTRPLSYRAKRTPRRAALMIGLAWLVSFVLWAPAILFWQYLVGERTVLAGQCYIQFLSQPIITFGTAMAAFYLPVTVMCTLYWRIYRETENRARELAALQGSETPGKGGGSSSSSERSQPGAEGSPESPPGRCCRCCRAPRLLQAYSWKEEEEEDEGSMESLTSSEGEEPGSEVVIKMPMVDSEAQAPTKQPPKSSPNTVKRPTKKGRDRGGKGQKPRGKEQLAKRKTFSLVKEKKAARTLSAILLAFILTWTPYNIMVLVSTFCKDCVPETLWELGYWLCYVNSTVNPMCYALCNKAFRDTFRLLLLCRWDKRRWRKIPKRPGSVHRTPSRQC
UniProt P14618, 1-531 isoform 2: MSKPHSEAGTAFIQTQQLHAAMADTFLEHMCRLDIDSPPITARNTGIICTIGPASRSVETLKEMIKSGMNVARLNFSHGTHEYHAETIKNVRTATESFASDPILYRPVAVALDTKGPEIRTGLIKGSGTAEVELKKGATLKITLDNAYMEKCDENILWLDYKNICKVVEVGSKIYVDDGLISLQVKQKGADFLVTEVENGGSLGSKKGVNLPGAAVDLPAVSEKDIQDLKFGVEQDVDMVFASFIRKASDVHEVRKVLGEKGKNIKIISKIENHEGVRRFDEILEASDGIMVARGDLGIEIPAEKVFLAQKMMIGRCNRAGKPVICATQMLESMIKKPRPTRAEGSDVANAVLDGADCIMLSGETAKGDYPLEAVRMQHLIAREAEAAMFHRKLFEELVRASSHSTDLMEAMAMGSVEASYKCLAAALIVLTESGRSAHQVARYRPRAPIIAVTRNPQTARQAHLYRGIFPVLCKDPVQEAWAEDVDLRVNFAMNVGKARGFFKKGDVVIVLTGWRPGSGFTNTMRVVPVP

[3] = MultiTox-Fluor Cytotoxicity Assay - LYMP1-001 - Dead Cells (AID 946); conditions: LYMP1-001 lymphoblastoid cells, dead-cell protease fluorescence; at 92.2 µM (top of the series);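 also: 0% = DMSO and 100% = tetraoctylammonium bromide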
Procedure, shortened: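 AC50 from Hill fit of concentration-response; data normalized to DMSO (basal) and 15 uM tetraoctylammonium bromide (100%). LYMP1-001 lymphoblastoid cells, 2500/well, 16 hr compound at 37 C; dead-cell protease fluorescence, Ex/Em 485/520.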

[4] = Cell Viability - LYMP1-002 - Assay at 16 hr (AID 948); conditions: LYMP1-002 lymphoblastoid cell viability; at 92.2 µM (top of the series);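 also: 0% = DMSO alone and full effect = 92 µM tetraoctylammonium bromide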
Procedure, shortened: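 Seed 2500 LYMP1-002 cells per well in complete medium and hold 5 hr at 37 C. Add compound across a concentration series and incubate 16 hr at 37 C. Add CellTiter-Glo, wait 30 min at room temperature, read luminescence.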

[5] = MultiTox-Fluor Cytotoxicity Assay - LYMP1-002 - Live Cells (AID 955); conditions: LYMP1-002 lymphoblastoid live-cell protease fluorescence viability; at 46.1 µM (top of the series);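 also: cells exposed to compound for 16 hours; % is scaled to controls: 0 for no effect and ±100 for the full control effect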
Procedure, shortened: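 After 16 h compound exposure at 37 C, live LYMP1-002 lymphoblastoid cells (2500/well) were quantified by cleavage of cell-permeant GF-AFC substrate, read at 405/510 nm after 60 min. Concentration-response fitted with Hill equation for AC50.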

[6] = MultiTox-Fluor Cytotoxicity Assay - LYMP1-002 - Dead Cells (AID 960); conditions: LYMP1-002 lymphoblastoid cells, dead-cell protease fluorescence; at 46.1 µM (top of the series);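 also: 0% = DMSO and 100% = tetraoctylammonium bromide; nearly all actives have a fitted effect of over 60% in size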
Procedure, shortened: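 Dead-cell fluorescence (Ex/Em 485/520) after 16 h compound exposure at 37 C of LYMP1-002 lymphoblastoid cells in complete medium; AC50 by Hill equation, with data scaled between DMSO and 15 uM tetraoctylammonium bromide.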

[7] = MultiTox-Fluor Cytotoxicity Assay - LYMP1-003 - Dead Cells (AID 961); conditions: LYMP1-003 lymphoblastoid cells, dead-cell protease fluorescence; at 92.2 µM (top of the series);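 also: 0% = DMSO and 100% = tetraoctylammonium bromide; nearly all actives have a fitted effect of over 70% in size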
Procedure, shortened: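 Human lymphoblastoid LYMP1-003 cells (2500/well) were treated with compounds for 16 hr at 37 C in complete medium. Dead-cell protease release was read by bis-AAF-R110 fluorescence (Ex/Em 485/520). AC50 came from Hill fits, normalized to DMSO and 15 uM tetraoctylammonium bromide.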

[8] = MultiTox-Fluor Cytotoxicity Assay - LYMP1-003 - Live Cells (AID 962); conditions: LYMP1-003 lymphoblastoid cells, MultiTox-Fluor live-cell protease fluorescence; at 92.2 µM (top of the series);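 also: cells exposed to compound for 16 hours at 37 °C; 0% = DMSO only and full loss = 92 µM tetraoctylammonium bromide; cytotoxic hits lower the live-cell protease signal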
Procedure, shortened: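 Live-cell protease activity (GF-AFC substrate, 405/510 nm, 60 min at room temperature) after 16 h, 37 C compound exposure of human lymphoblastoid LYMP1-003 cells; concentration-response fitted to the Hill equation for AC50.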

[9] = Cell Viability - LYMP1-003 - Assay at 24 hr (AID 963); conditions: LYMP1-003 lymphoblastoid cell viability; at 92.2 µM (top of the series);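 also: plate controls were DMSO only for no effect and tetraoctylammonium bromide positive control for full effect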
Procedure, shortened: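 Concentration-response qHTS: ATP loss measured by CellTiter-Glo luminescence after 24 h compound exposure at 37 C. Cells were LYMP1-003 human lymphoblastoid, 2500 per well. AC50 derived via standard Hill equation modeling.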

[10] = Cell Viability - LYMP1-003 - Assay at 40 hr (AID 964); conditions: LYMP1-003 lymphoblastoid viability; at 92.2 µM (top of the series); also: % is scaled to controls: 0 for no effect and ±100 for the full control effect; nearly all actives have a fitted effect of over 60% in size
Procedure, shortened: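 Viability is taken as cellular ATP, read by CellTiter-Glo luminescence after 40 h of compound exposure at 37 C. Cells: human lymphoblastoid line LYMP1-003 at 2500/well; AC50 values derived by Hill-equation fitting of concentration-response data.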

[11] = Cell Viability - LYMP2-003 (AID 965); conditions: LYMP2-003 lymphoblastoid cell viability; at 92.2 µM (top of the series);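 also: cells exposed to compounds for 24 h before reading; 0% = DMSO only and full effect = 92 µM tetraoctylammonium bromide; nearly all actives have a fitted effect of over 50% in size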
Procedure, shortened: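 Seed 2500 lymphoblastoid cells/well; incubate 5 hr, 37 C; add compounds; incubate 24 hr, 37 C; add CellTiter-Glo, 30 min RT; read luminescence. AC50 from Hill fit.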

[12] = Cell Viability - LYMP2-004 (AID 966); conditions: LYMP2-004 lymphoblastoid cell viability, qHTS; at 92.2 µM (top of the series);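 also: plate controls were DMSO only for no effect and tetraoctylammonium bromide control for full effect; nearly all actives have a fitted effect of over 65% in size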
Procedure, shortened: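 AC50 values come from Hill modelling of concentration-dependent loss of intracellular ATP, measured by CellTiter-Glo luminescence. Human LYMP2-004 lymphoblastoid cells (2500/well) were exposed to compound for 24 h at 37 C.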

[13] = Cell Viability - LYMP2-005 (AID 967); conditions: LYMP2-005 lymphoblastoid cell viability; at 92.2 µM (top of the series);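 also: plate controls were DMSO only for no effect and 92 µM tetraoctylammonium bromide control for full effect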
Procedure, shortened: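 Acute cytotoxicity is scored as a concentration-dependent drop in intracellular ATP in human lymphoblastoid LYMP2-005 cells after 24 h compound treatment. ATP is quantified by luciferase luminescence, and AC50 is derived by Hill-equation modelling.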

[14] = Cell Viability - LYMP2-009 (AID 968); conditions: LYMP2-009 lymphoblastoid cell viability; at 92.2 µM (top of the series);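 also: 0% = DMSO alone and the full-kill end = tetraoctylammonium bromide at 92 µM; nearly all actives have a fitted effect of over 55% in size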
[15] = Cell Viability - LYMP2-011 (AID 969); conditions: LYMP2-011 lymphoblastoid cells viability; at 92.2 µM (top of the series);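 also: 0% = DMSO only and full inhibition = 92 µM tetraoctylammonium bromide; nearly all actives have a fitted effect of over 60% in size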
Procedure, shortened: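 Cytotoxicity qHTS with ATP content as read-out: lymphoblastoid cells (2500/well) exposed to compound for 24 h at 37 C, then luciferase luminescence measured. Concentration-response data fitted with the standard Hill equation to give AC50.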

[16] = Cell Viability - LYMP2-013 (AID 970); conditions: LYMP2-013 lymphoblastoid cells viability; at 92.2 µM (top of the series);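 also: 0% = DMSO only and full inhibition = tetraoctylammonium bromide control; nearly all actives have a fitted effect of over 55% in size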
Procedure, shortened: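 qHTS cytotoxicity: ATP-dependent luminescence (CellTiter-Glo, 30 min room temperature) read after 24 h compound exposure at 37 C of 2500 LYMP2-013 lymphoblastoid cells per well. Concentration-response fitted with Hill equation to give AC50.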

[17] = Cell Viability - LYMP2-015 (AID 971); conditions: LYMP2-015 lymphoblastoid cell viability; at 92.2 µM (top of the series);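 also: 0% = DMSO only and full effect = 92 µM tetraoctylammonium bromide; nearly all actives have a fitted effect of over 55% in size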
Procedure, shortened: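 Cytotoxicity readout: decrease in intracellular ATP (CellTiter-Glo luminescence) in 2500 LYMP2-015 lymphoblastoid cells/well after 24 h compound exposure at 37 C. Concentration-response data fitted with the standard Hill equation to give AC50.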

[18] = Cell Viability - LYMP2-017 (AID 972); conditions: LYMP2-017 lymphoblastoid cell viability; at 92.2 µM (top of the series); also: % is scaled to controls: 0 for no effect and ±100 for the full control effect; nearly all actives have a fitted effect of over 55% in size
Procedure, shortened: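 CellTiter-Glo luminescence (cellular ATP, 30 min RT) measured cytotoxicity after 24 hr compound treatment at 37 C. Cells were a human lymphoblastoid line, LYMP2-017, plated at 2500/well and incubated 5 hr first; concentration-response fitted with Hill equation for AC50.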

[19] = Cell Viability - LYMP2-019 (AID 973); conditions: LYMP2-019 lymphoblastoid cell line viability; at 92.2 µM (top of the series)
Procedure, shortened: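 AC50 values come from Hill-equation fits of luminescent intracellular ATP (CellTiter-Glo, 30 min, room temperature) following 24 h compound exposure at 37 C. Cells: LYMP2-019 lymphoblastoid line, 2500 per well, in complete culture medium.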

[20] = MultiTox-Fluor Cytotoxicity Assay - LYMP1-001 - Live Cells (AID 947); conditions: LYMP1-001 lymphoblastoid cells, live-cell protease fluorescence viability; at 92.2 µM (top of the series);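 also: 0% = DMSO only and full inhibition = tetraoctylammonium bromide control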

N#[O+].[C-]#N.[C-]#N.[C-]#N.[C-]#N.[C-]#N.[Fe+2].[Na+].[Na+]
inactive: activity change, negative = inhibition [1] -27.3% | activity change, negative = inhibition [2] -12.7%

Cc1c([N+](=O)[O-])cccc1[N+](=O)[O-]
inactive: cytotoxicity (dead cells) [3] -15.5% | activity change, negative = cytotoxicity [4] 0.892% | viability change, negative = cytotoxic [5] -0.459% | cytotoxicity (dead cells) [6] 5.24% | cytotoxicity (dead cells) [7] -3.66% | activity change, negative = fewer live cells [8] -3.51% | viability change, negative = cytotoxic [9] -2.66% | activity change, negative = cytotoxic [10] -0.898% | activity change, negative = cytotoxicity [11] 0.896% | activity change, negative = cytotoxicity [12] 6% | activity change, negative = viability loss [13] 10.9% | activity change, negative = viability loss [14] -2.57% | viability change, negative = cytotoxic [15] -2.56% | activity change, negative = cytotoxic [16] 0.651% | activity change, negative = lower viability [17] -5.97% | activity change, negative = cytotoxicity [18] -8.46% | activity change, negative = cytotoxicity [19] -9.5%

Cc1ccc([N+](=O)[O-])c([N+](=O)[O-])c1
inactive: cytotoxicity (dead cells) [3] 11.1% | activity change, negative = cytotoxicity [4] -10.3% | viability change, negative = cytotoxic [5] 2.14% | cytotoxicity (dead cells) [6] 5.76% | cytotoxicity (dead cells) [7] 13.8% | activity change, negative = fewer live cells [8] -3.65% | viability change, negative = cytotoxic [9] -18.9%

CCC(C)(OO)OOC(C)(CC)OO (configuration not stated)
inactive: cytotoxicity (dead cells) [3] -10.3% | activity change, negative = cytotoxicity [20] 2.71% | activity change, negative = cytotoxicity [4] -1.42% | viability change, negative = cytotoxic [5] 7.86% | cytotoxicity (dead cells) [6] -3.45% | cytotoxicity (dead cells) [7] -1.4% | activity change, negative = fewer live cells [8] -4.76% | viability change, negative = cytotoxic [9] -3.57% | activity change, negative = cytotoxic [10] -11.3% | activity change, negative = cytotoxicity [11] -14% | activity change, negative = viability loss [13] -11.8% | activity change, negative = viability loss [14] -15.8% | viability change, negative = cytotoxic [15] -0.657% | activity change, negative = cytotoxic [16] -14.7% | activity change, negative = cytotoxicity [19] -16%

O=[N+]([O-])c1cccc([N+](=O)[O-])c1
inactive: cytotoxicity (dead cells) [3] -12.9% | activity change, negative = cytotoxicity [20] -10.2% | activity change, negative = cytotoxicity [4] -4.09% | viability change, negative = cytotoxic [5] 1.49% | cytotoxicity (dead cells) [6] 9.88% | cytotoxicity (dead cells) [7] -4.17% | activity change, negative = fewer live cells [8] -3.69% | viability change, negative = cytotoxic [9] 3.39% | activity change, negative = cytotoxic [10] -9.69% | activity change, negative = cytotoxicity [11] 10.1% | activity change, negative = cytotoxicity [12] 0.653% | activity change, negative = viability loss [13] 10.9% | activity change, negative = viability loss [14] -3.25% | viability change, negative = cytotoxic [15] 6.46% | activity change, negative = cytotoxic [16] -4.52% | activity change, negative = lower viability [17] -15.2% | activity change, negative = cytotoxicity [18] -11.4% | activity change, negative = cytotoxicity [19] -5.41%

Cc1ccc([N+](=O)[O-])cc1[N+](=O)[O-]
inactive: cytotoxicity (dead cells) [3] -11.7% | activity change, negative = cytotoxicity [20] -4.82% | activity change, negative = cytotoxicity [4] -6.46% | viability change, negative = cytotoxic [5] 9.74% | cytotoxicity (dead cells) [6] 2.11% | cytotoxicity (dead cells) [7] -9.43% | activity change, negative = fewer live cells [8] -2.7% | viability change, negative = cytotoxic [9] -4.52% | activity change, negative = cytotoxic [10] -16.7% | activity change, negative = cytotoxicity [11] 5.37% | activity change, negative = cytotoxicity [12] -4.93% | activity change, negative = viability loss [13] 4.89% | activity change, negative = viability loss [14] -14.1% | viability change, negative = cytotoxic [15] -5.77% | activity change, negative = cytotoxic [16] -2.64% | activity change, negative = lower viability [17] -8.21% | activity change, negative = cytotoxicity [18] -2.13% | activity change, negative = cytotoxicity [19] -2.94%

— PubChem BioAssay (NCATS)
